This test deals with HA-tagged eIF3f mutant K_(5–10)R (mouse) (UniProt Q9DCH4). Description: co-IP; HA-tagged eIF3f wt or K5-10R transfected in mouse primary skeletal muscle cells; extracts of 3 days differentiated myotubes immunoprecipitated with anti-HA; blots for endogenous mTOR and raptor, quantified relative to HA-eIF3f; also after 20 nM rapamycin (Figure S1, 'destabilizes').

“endogenous mTOR (from UniProt Q9JLN9 1-2549) (enzyme)” had a fold bound relative to HA-tagged eIF3f wt of 2 fold.

Source of the values: publication PMC2813880.
